Among the data in published antibiotic growth screens (doi:10.1038/s41589-023-01349-8) are relative growth values, retold here.

Some of the results follow.

The assay relates to A. baumannii ATCC 17978. The assay can be described thus: relative growth (fraction of control); higher = less inhibition. The settings on record: 50 µM.
In the case of `COCc1cc(C)[nH]c(=O)c1C#N`, the relative growth is 0.949.
`CCOC(=O)Cn1cccc2oc(=O)nc1-2` yielded a relative growth of 0.97.
As for `CCCC1O[C@@H]2C[C@H]3[C@@H]4CCC5=CC(=O)C=C[C@]5(C)[C@H]4[C@@H](O)C[C@]3(C)[C@]2(C(=O)CO)O1` (some centres not stated), the figure is 1.02; as for `CCN(CC)CCCC(C)Nc1ccnc2cc(Cl)ccc12.O=P(O)(O)O.O=P(O)(O)O` (configuration not stated), 1.15.
`C[C@H](O)C1=C[C@]2(CC[C@@H]3C(C(=O)O)=CO[C@@H](O[C@@H]4O[C@H](CO)[C@@H](O)[C@H](O)[C@H]4O)[C@@H]32)OC1=O` showed a relative growth of 1.09.
Molecule `CO[C@H]1CN(C)C(=O)c2ccc(NS(=O)(=O)CC(F)(F)F)cc2OC[C@H](C)N(C(=O)NC(C)C)C[C@H]1C` displayed a relative growth of 0.923.
Under `Nc1ccc(/C=C/c2ccccc2)cc1` stands 1.01.
In turn, `O=C(C[C@H]1CC[C@H]2[C@@H](COC[C@@H](O)CN2S(=O)(=O)c2ccccc2F)O1)NCc1ccccc1F` came in with a relative growth of 1.09.
`C[C@@H]1O[C@H](O[C@@H]2[C@H](Oc3c(-c4ccc(O)cc4)oc4cc(O)cc(O)c4c3=O)O[C@H](CO[C@@H]3O[C@H](C)[C@@H](O)[C@H](O)[C@@H]3O)[C@@H](O)[C@@H]2O)[C@@H](O)[C@H](O)[C@@H]1O`: the relative growth is 1.02.
Under `CN(C)CCCNC(=O)C[C@@H]1C=C[C@H](NC(=O)Cc2cccnc2)[C@H](CO)O1` stands 0.909; under `COC[C@H]1CNN1C(=O)c1cc(C)oc1C`, 0.89; under `COc1ccc2oc(C(C)=O)cc2c1`, 0.88.
`Cn1nccc1C(=O)NCCN` came in with a relative growth of 0.927.
Regarding `O=NN(CCCl)C(=O)NCCCl`, the relative growth came out at 1.02.
With `NCC[C@@H]1CC[C@H](NC(=O)C2CCCC2)[C@H](CO)O1`, the relative growth came to 1.05.
Under `CCOC(=O)c1ncn2c1CN(C)C(=O)c1cc(F)ccc1-2` stands 0.936.
As for `CO[C@H]1CN(C)C(=O)c2cc(NS(=O)(=O)CC(F)(F)F)ccc2OC[C@H](C)N(Cc2ccccn2)C[C@@H]1C`, the figure is 0.971.
In turn, `COc1cc(/C=C/c2ccc(O)cc2)cc(OC)c1` displayed a relative growth of 0.533.
As for `C[C@@]1(c2cccs2)CC(c2cccs2)=Nc2ccccc2N1`, the figure is 0.908; as for `CC1=C(/C=C/C(C)=C/C=C/C(C)=C/C=C/C=C(C)/C=C/C=C(C)/C=C/C2=C(C)C(=O)CCC2(C)C)C(C)(C)CCC1=O` [CANTHAXANTHIN (euglenanone)], 0.905; as for `CN(C)CC(=O)N[C@@H]1CC[C@@H](CCNC(=O)C2CC2)O[C@@H]1CO`, 0.917.
As for `C[C@@H]1CC[C@]2(C)C(C=O)=CCC[C@H]2[C@@]1(C)CC1OC(O)C(=O)[C@]12CO2` (some centres not stated), the figure is 0.147; as for `CC(=O)[C@H]1CCC2C3C[C@H](C)C4=CC(=O)CC[C@]4(C)C3[C@@H](O)C[C@@]21C` (some centres not stated), 0.894; as for `CCOC(=O)c1c(NC(C)=O)no[n+]1[O-]`, 1.08.
Under `Cc1ccc(S(=O)(=O)N2C[C@@H](O)COC[C@H]3O[C@@H](CC(=O)N[C@@H]4CCN(Cc5ccccc5)C4)CC[C@@H]32)cc1` stands 1.01; under `CCN(CCCCOC(=O)c1ccc(OC)c(OC)c1)C(C)Cc1ccc(OC)cc1.Cl` (configuration not stated), 1.21; under `N#C[C@@H]1C[C@@H]2C[C@@H]2N1C(=O)[C@@H](N)[C@]12CC3CC(C[C@@](O)(C3)C1)C2`, 1.16.
Turning to `Cl.NCCCC[C@H](N)C(=O)O`, the relative growth was 1.02.
In turn, `C=c1ccc(S(=O)(=O)NC[C@@H](C)O)cc1=C1NN=C2c3ccccc3C(C)=NN21` showed a relative growth of 1.24.
Under `COc1ccc(S(=O)(=O)N[C@@H]2CC[C@H](CC(=O)N3CCC(Cc4ccccc4)CC3)O[C@H]2CO)cc1` stands 0.907; under `NCCCc1nc2c(s1)CCCC2`, 0.989; under `O=C(C[C@H]1NC(=O)NC1=O)Nc1ccccc1`, 1.09.
Under `COc1cc2nc(N3CCN(C(=O)C4CCCO4)CC3)nc(N)c2cc1OC.Cl` (configuration not stated) stands 1.06.
Under `O=C(C[C@@H]1C=C[C@@H](NC(=O)CN2CCOCC2)[C@H](CO)O1)NCCc1ccccc1` stands 0.96.
`COCC(=O)N(C)C[C@H]1Oc2cc(-c3ccc(OC)cc3)ccc2S(=O)(=O)N([C@H](C)CO)C[C@@H]1C` returned a relative growth of 1.04.
As for `CS(=O)(=O)c1ccccc1CC(=O)O`, the figure is 1.01; as for `CCCNC(=O)N(C)C[C@@H]1Oc2cc(C#Cc3cccc(F)c3)ccc2S(=O)(=O)N([C@H](C)CO)C[C@H]1C`, 0.869.
The molecule `Cc1ccccc1S(=O)(=O)N1C[C@H](O)COC[C@@H]2O[C@@H](CC(=O)NCc3ccccc3Cl)CC[C@H]21` showed a relative growth of 0.977.
As for `Clc1ccc(/C=C/C2=Nc3cccc4cccc(c34)N2)cc1`, the figure is 1.1; as for `CNC(=S)NCc1ccco1`, 0.969; as for `COC[C@H]1CN(C(=O)c2cscn2)N1C`, 1.09.
As for `COc1ccc2cc3[n+](cc2c1OC)CCc1cc2c(cc1-3)OCO2.[Cl-]`, the figure is 0.943; as for `CC(=O)N(C)C[C@H]1Oc2ncc(C#CC(C)(C)O)cc2C(=O)N([C@H](C)CO)C[C@@H]1C`, 1.05; as for `Cc1ccc(N(c2ccc(C)cc2)c2cccnc2)cc1`, 0.866.
As for `COc1cccc(NC(=O)N[C@H]2C=C[C@@H](CC(=O)N3CCOCC3)O[C@@H]2CO)c1`, the figure is 1.1; as for `COCCNC(=O)C[C@H]1CC[C@@H]2[C@H](COC[C@H](O)CN2S(=O)(=O)c2ccccc2C)O1`, 0.99; as for `c1ccc(C2=Nc3ccccc3N=C(c3ccccc3)C2)cc1`, 1.05.
Molecule `OC[C@@H]1CN(CCN2CCOCC2)C[C@H](n2cnc3c(NC4CCC4)ncnc32)O1` displayed a relative growth of 1.04.
Under `CCc1cccc(C)c1NC(C)=O` stands 1.06; under `Cc1occc(=O)c1O`, 0.903.
The molecule `O=C(Nc1ccccc1)c1ccccc1` returned a relative growth of 0.84.
As for `COc1ccc2[nH]c(=O)[nH]c(=O)c2c1`, the relative growth was 0.841.
`CO[C@H]1CN(C)C(=O)c2ccc(NS(=O)(=O)c3ccccc3)cc2OC[C@@H](C)N(C(=O)NC(C)C)C[C@@H]1C` registered a relative growth of 1.06.
`O=C(CCC1=NS(=O)(=O)c2cc(Br)cnc2N1)N1CCOCC1` displayed a relative growth of 0.996.
`COc1cccc(NC(=O)N(C)C[C@@H]2Oc3cc(C#CC4(O)CCCC4)ccc3S(=O)(=O)N([C@@H](C)CO)C[C@@H]2C)c1`: the relative growth amounted to 1.12.
In turn, `COCC(=O)N(C)C[C@H]1Oc2cc(C#Cc3cccnc3)ccc2S(=O)(=O)N([C@H](C)CO)C[C@H]1C` came in with a relative growth of 0.981.
Regarding `CCC(=O)N[C@@H]1CC[C@H](CC(=O)OC)O[C@H]1CO`, the relative growth was determined as 0.977.
`C[C@@H]1CN([C@H](C)CO)S(=O)(=O)c2ccc(C#C[C@@H](C)O)cc2O[C@@H]1CN(C)C(=O)c1ccccc1` had a relative growth of 0.96.
As for `CCOc1cc(CC(=O)N[C@@H](CC(C)C)c2ccccc2N2CCCCC2)ccc1C(=O)O`, the figure is 0.984.
In the case of `NC(=O)[C@H]1[C@@H]2C(=O)O[C@@H](c3ccccc3)[C@@H](c3ccccc3)N2[C@@H](c2ccc(O)cc2)[C@]12C(=O)Nc1ccc(C#CC3(O)CCCCCC3)cc12`, the relative growth stood at 1.02.
The molecule `CNC(=O)C[C@H]1Nc2ccccc2NC1=O` displayed a relative growth of 1.03.
With `C[C@@H]1CN([C@@H](C)CO)S(=O)(=O)c2ccc(C#CCN(C)C)cc2O[C@H]1CN(C)S(=O)(=O)c1cccc(F)c1`, the relative growth is 1.1.
Under `COc1ccc(C(=O)c2ccccc2)c(O)c1` stands 0.992; under `COC(=O)c1c(CC[C@@H](CO)NC(=O)N[C@@H](Cc2ccccc2)Cn2cc(C3(O)CCCCC3)nn2)oc(C(C)=O)c1C(=O)OC`, 0.841.
Under `O=C(C[C@H]1C=C[C@@H](NC(=O)c2cccc(F)c2)[C@H](CO)O1)NCCN1CCCC1` stands 1.04; under `COc1ccc(S(=O)(=O)N[C@H]2C=C[C@H](CC(=O)N3CCN(c4ccccc4)CC3)O[C@@H]2CO)cc1`, 1.04; under `C[C@H](CO)N1C[C@H](C)[C@H](CN(C)C(=O)c2ccc3c(c2)OCO3)Oc2cc(C#Cc3ccccc3F)ccc2S1(=O)=O`, 1.05.
Turning to `COc1ncnc(NS(=O)(=O)c2ccc(N)cc2)c1OC`, the relative growth came to 1.03.
`C#CCCCCCCCCCCCC(O)CC(O)COC(C)=O` (configuration not stated) gave a relative growth of 0.789.
As for `O=C(O)CSCC(=O)N1CCCCC1`, the figure is 0.897.
With `CSCC[C@H]1NC(=O)NC1=O`, the relative growth turned out to be 1.01.
Under `CN[C@@H]1C(OC2[C@H](O[C@H]3[C@H](O)[C@@H](O)[C@H](NC(=N)N)[C@@H](O)[C@@H]3NC(=N)N)OC(C)[C@]2(O)CO)OC(CO)C(O)C1O.O=S(=O)(O)O` (some centres not stated) stands 0.895.
`CCC(C)[C@H]1O[C@]2(C=C[C@@H]1C)C[C@@H]1C[C@@H](C/C=C(\C)[C@@H](OC3C[C@H](OC)C(O[C@H]4C[C@H](OC)[C@@H](O)[C@H](C)O4)[C@H](C)O3)[C@@H](C)/C=C/C=C3\CO[C@@H]4[C@H](OC)C(C)=C[C@@H](C(=O)O1)[C@]34O)O2` (some centres not stated) yielded a relative growth of 1.04.
Under `C[C@@H]1CN([C@H](C)CO)S(=O)(=O)c2ccc(-c3ccc(C(=O)N(C)C)cc3)cc2O[C@H]1CN(C)C(=O)C1CCOCC1` stands 0.94.
Consider `C[C@H](O)[C@H](O)[C@@H](O)[C@@H](O)/C=N/NC(=O)c1cccc(C(=O)NO)c1`, for which the relative growth is 0.869.
In turn, `O=C(C1=C[C@@H](c2ccc3c(c2)OCO3)C[C@@H](OCCCCO)O1)N1CCN(Cc2ccc3c(c2)OCO3)CC1` registered a relative growth of 1.07.
Under `OCCNC(=S)Nc1ccccc1` stands 1.04; under `COc1ccc(C(=O)CC(=O)c2ccc(C(C)(C)C)cc2)cc1`, 0.959.
As for `CCN(CCO)CCCC(C)Nc1ccnc2cc(Cl)ccc12.O=S(=O)(O)O` (configuration not stated), the figure is 1.1.
Under `O=C(C[C@@H]1CC[C@H](NC(=O)CN2CCOCC2)[C@H](CO)O1)NC1CCC1` stands 0.919; under `COC(=O)c1cc(=O)[nH]c2c1c(=O)n(C)c(=O)n2C`, 1.14; under `COC(=O)c1c[nH]c(=S)n1C`, 0.906.
As for `Nc1nc2c(ncn2COCCO)c(=O)[nH]1`, the relative growth was 1.09.
In the case of `O=C(O)c1ccc2nc(O)c(=O)[nH]c2c1`, the relative growth was 0.998.
As for `CC(C)CNC(=O)[C@@]1(C)c2ccccc2C(=O)N(Cc2cc(C(F)(F)F)cc(C(F)(F)F)c2)[C@H]1c1ccc(CO)cc1`, the figure is 0.871; as for `O=C(C[C@@H]1CC[C@@H]2[C@H](COC[C@H](O)CN2S(=O)(=O)c2ccccc2F)O1)NCc1ccccc1Cl`, 0.991; as for `CC(C)NC(=O)N(C)C[C@H]1Oc2cc(C#Cc3ccccn3)ccc2S(=O)(=O)N([C@H](C)CO)C[C@@H]1C`, 1.01.
